What is called EC50 is the concentration giving half of the maximal effect.

Data set [1] has as its target T1, CRFR2 (Homo sapiens, UniProt Q13324).
T1 sequence (Q13324 1-411): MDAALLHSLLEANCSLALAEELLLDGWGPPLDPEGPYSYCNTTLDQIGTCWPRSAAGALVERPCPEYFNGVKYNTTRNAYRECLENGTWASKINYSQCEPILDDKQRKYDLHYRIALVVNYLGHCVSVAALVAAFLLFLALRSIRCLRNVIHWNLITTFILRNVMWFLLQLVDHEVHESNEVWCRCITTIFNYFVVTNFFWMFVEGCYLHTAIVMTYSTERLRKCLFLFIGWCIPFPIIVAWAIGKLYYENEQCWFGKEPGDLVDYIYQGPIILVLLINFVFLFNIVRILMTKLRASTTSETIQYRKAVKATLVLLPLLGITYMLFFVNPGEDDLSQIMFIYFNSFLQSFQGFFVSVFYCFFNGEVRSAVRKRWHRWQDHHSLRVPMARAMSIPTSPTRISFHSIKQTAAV
As to the kind of experiment: in vitro potency / binding potential for CRFR2 (table of FIG. 10). In kind it is biochemical.

Data set [2] has as its target T2, CRFR1 (Homo sapiens, UniProt P34998).
T2 sequence (P34998 24-415): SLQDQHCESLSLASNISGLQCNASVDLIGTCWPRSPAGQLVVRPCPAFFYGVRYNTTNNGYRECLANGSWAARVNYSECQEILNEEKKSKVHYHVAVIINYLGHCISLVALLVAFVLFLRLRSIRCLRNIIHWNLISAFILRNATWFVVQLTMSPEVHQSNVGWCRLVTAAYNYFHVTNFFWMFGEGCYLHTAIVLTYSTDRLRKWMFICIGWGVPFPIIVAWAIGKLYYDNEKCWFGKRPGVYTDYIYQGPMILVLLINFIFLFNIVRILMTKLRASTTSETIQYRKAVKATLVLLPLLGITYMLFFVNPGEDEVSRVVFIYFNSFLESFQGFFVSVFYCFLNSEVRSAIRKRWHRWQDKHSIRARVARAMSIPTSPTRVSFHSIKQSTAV
In words: in vitro binding potential for CRFR1 (table of FIG. 10). In kind it is biochemical.

The subject of data set [3] is healthy human subjects. The following applies: continuous (i.v. infusion) plasma concentrations, healthy humans, FIG. 10; cited from earlier work.
Data set [4] concerns stable congestive heart failure patients. Conditions: i.v. infusion over 1 hour; cited from earlier work.
For data set [5], the target named is CRFR1 (Homo sapiens, UniProt P34998). As to the kind of experiment: EC50, nmol (% of Emax) | CRFR1. From the text: Table printed on a drawing sheet, FIGURE 10
Title: Pharmacokinetic Parameters
Head of the field: EC50, nmol (% of Emax) | CRFR1
Footnotes: FIGURE 10: Effect of maximum or steady state plasma concentrations (Cmax or Css) of various CRFR2 agonists (CT38, SCP or Ucn2), dosed by subcutaneous bolus (triangles) or intravenous infusion (circles), on the maximum heart rate (HRmax) in healthy subjects (solid lines) or stable congestive heart failure patients (dashed lines). The table provides comparative pharmacokinetic parameters for the CRFR2 agonists.
That is, for strongly potent CRFR2 agonists and relative intermediate plasma concentrations, the loss of the ability to induce a heart rate increase via continuous dosing, was driven by the duration of dosing, and appeared to occur with different selective CRFR2 agonists (e.g., Ucn2, stresscopin), irrespective of the condition of the human subject.
First copying reader's note: Each EC50 cell holds the EC50 in nmol with the % of Emax in brackets after it.
Where the first naming reader finds the target: head: EC50, nmol (% of Emax) | CRFR1

Data set [6] has as its system male Sprague Dawley rats. As to the kind of experiment: Example 1: telemetry of heart rate, blood pressure, body temperature after s.c. bolus. It is filed as in vivo, rat. The following applies: normal rats.
Data set [7] concerns male Sprague Dawley rats. In words: Example 3: gastrointestinal transit of a charcoal meal after s.c. bolus. In kind it is in vivo, rat. Conditions: at 30 mins post-dose, normal rats.
For data set [8], the system named is male Sprague Dawley rats. As to the kind of experiment: Example 4: renal function (urine volume and chemistry) after s.c. bolus. It is filed as in vivo, rat. Conditions: normal rats.
In data set [9] the test system is male Sprague Dawley rats. As to the kind of experiment: Example 6: spontaneous motor activity after s.c. bolus. It is filed as in vivo, rat. Conditions: varying doses, normal rats.
The subject of data set [10] is healthy human subjects. In words: Example 9: Phase 1 single ascending dose trial, s.c. bolus. In kind it is in vivo. The method, then: In a Phase 1 human single ascending dose clinical trial (2005051), CT38s was dosed by subcutaneous injection (bolus) in cohorts of human subjects (each cohort receiving the same dose; rising dose across cohorts). The purpose of this trial was to determine the maximum tolerated bolus dose of CT38s in healthy human subjects.

Data set [11] concerns male Sprague Dawley rats. In words: Example 2: respiratory rate and tidal volume (plethysmography) after s.c. bolus. The following applies: normal rats.
[12] abbreviates: s.c. single daily bolus, varying doses.
Setting [13] is: bolus dose, healthy human subjects.

Take `CC[C@H](C)[C@H](N)C(=O)N[C@H](C(=O)N[C@@H](CC(C)C)C(=O)N[C@@H](CO)C(=O)N[C@@H](CC(C)C)C(=O)N[C@@H](CC(=O)O)C(=O)N[C@H](C(=O)N1CCC[C@H]1C(=O)N[C@H](C(=O)NCC(=O)N[C@@H](CC(C)C)C(=O)N[C@@H](CC(C)C)C(=O)N[C@@H](CCC(N)=O)C(=O)N[C@H](C(=O)N[C@@H](CC(C)C)C(=O)N[C@@H](CC(C)C)C(=O)N[C@@H](CCC(=O)O)C(=O)N[C@@H](CCC(N)=O)C(=O)N[C@@H](C)C(=O)N[C@@H](CCCNC(=N)N)C(=O)N[C@@H](C)C(=O)N[C@@H](CCCNC(=N)N)C(=O)N[C@@H](C)C(=O)N[C@@H](C)C(=O)N[C@@H](CCCNC(=N)N)C(=O)N[C@@H](CCC(=O)O)C(=O)N[C@@H](CCC(N)=O)C(=O)N[C@@H](C)C(=O)N[C@H](C(=O)N[C@H](C(=O)N[C@@H](CC(N)=O)C(=O)N[C@@H](C)C(=O)N[C@@H](CCCNC(=N)N)C(=O)N[C@H](C(=O)N[C@@H](CC(C)C)C(=O)N[C@@H](C)C(=O)N[C@@H](CCCNC(=N)N)C(=O)N[C@H](C(N)=O)C(C)C)[C@@H](C)CC)[C@@H](C)O)[C@@H](C)O)[C@@H](C)CC)[C@@H](C)CC)C(C)C)C(C)C` [Ucn2, urocortin 2]: the EC50 in data set [1] (in vitro, read-out: EC50 (achieves maximal CRFR2 stimulation)) was 4.3 nM. The “in vitro binding potential for CRFR2” value in data set [1] (table of FIG. 10) was “maximal, at low concentrations”. Moreover, in [2], the “in vitro binding potential for CRFR1” value is given as “minimal, at high concentrations”. Also, the “effect of plasma concentration on heart rate, compared with CT38 bolus” value in data set [3] is listed as “much diminished”. The “pattern of effect on heart rate versus healthy subjects” value in [4] is reported as “did not change”. The “EC50, nmol (% of Emax) | CRFR1” value in data set [5] is > 1000 (7.6) nmol (% of Emax).

With `CC[C@H](C)[C@H](NC(=O)[C@@H](NC(=O)[C@H](CC(=O)O)NC(=O)[C@H](CC(C)C)NC(=O)[C@H](CC(C)C)NC(=O)[C@H](CCCNC(=N)N)NC(=O)[C@H](C)NC(=O)[C@H](CC(N)=O)NC(=O)[C@H](CC(N)=O)NC(=O)[C@H](C)NC(=O)[C@H](C)NC(=O)[C@H](CCC(N)=O)NC(=O)[C@H](CCC(N)=O)NC(=O)[C@H](CCCCN)NC(=O)[C@H](CCC(=O)O)NC(=O)[C@H](CCCCN)NC(=O)[C@H](CCC(=O)O)NC(=O)[C@H](CCC(N)=O)NC(=O)[C@H](CCCCN)NC(=O)[C@H](CCC(=O)O)NC(=O)[C@@H](NC(=O)[C@H](CCC(=O)O)NC(=O)[C@@H](NC(=O)[C@@H](NC(=O)[C@H](CCCCN)NC(=O)[C@H](CCCNC(=N)N)NC(=O)[C@H](CC(C)C)NC(=O)[C@H](CC(C)C)NC(=O)[C@H](CCC(N)=O)NC(=O)[C@H](Cc1ccccc1)NC(=O)[C@@H]1CCCN1C(=O)[C@H](CC(C)C)NC(=O)[C@H](CC(=O)O)NC(=O)[C@@H](NC(=O)[C@H](CO)NC(=O)[C@@H](NC(=O)[C@@H]1CCCN1C(=O)[C@@H]1CCCN1C(=O)CNC(=O)[C@@H]1CCC(=O)N1)[C@@H](C)CC)[C@@H](C)CC)C(C)C)[C@@H](C)CC)[C@@H](C)CC)[C@@H](C)O)C(N)=O` [CT38s], in [6] (s.c. bolus), the “blood pressure returning to control values” is on record as at most 4 hours post-dose, the “body temperature returning to control values” is given as at most 8 hours post-dose, the “heart rate returning to control values” is listed as at most 4 hours post-dose and the “time of maximal heart rate relative to vehicle” value was determined as 30 mins post-dose. Besides, in data set [6] (s.c. bolus), the “time of minimal blood pressure relative to vehicle” value is on record as 30 mins post-dose and the “time of minimal body temperature relative to vehicle” value amounted to 1 hour post-dose. Besides, in data set [6] (setting [12]), the “effect on blood pressure” value is recorded as “decreases in blood pressure”, the “effect on body temperature” value was “decreases in body temperature” and the “effect on heart rate” value is on record as “significant dose-responsive increases in heart rate”. Also, the “effect on gastrointestinal transit” value in data set [7] is “significant dose-responsive delays in gastrointestinal transit”. The “renal function: urinary volume and electrolyte excretion” value in data set [8] (0-4 hours post-dose) is “decreased urinary volume and electrolyte excretion”. For the same compound, the “renal function: urinary volume and electrolyte excretion” value in data set [8] (4-8 hours post-dose) was “increased urinary volume and electrolyte excretion”. Besides, in [9], the “effect on number of vertical movements” value is given as “significant dose responsive decreases” and the “effect on total distance traveled” value is given as “significant dose responsive decreases”. In [10] (setting [13]), the “effect on blood pressure” value is given as “decreased blood pressure” and the “effect on heart rate” value is recorded as “transiently increased heart rate”. Moreover, the “minimum stimulating bolus dose to induce a heart rate increase” value in data set [10] (healthy young males, s.c. injection) was 0.2 µg/kg of body weight. In data set [10] (s.c. bolus, healthy human subjects, FIG. 9C), the “plasma concentration rise in any 15-minute period that caused increased heart rate” value was above 0.2 ng/mL. The “effect on respiratory rate” value in data set [11] (at 1 hour post-dose) is reported as “significant dose-responsive decreases in respiratory rate”. In data set [11], the “respiratory rate returning to control values” is on record as at most 2 hours post-dose. The “effect on tidal volume” value in data set [11] (not shown) is “smaller changes in tidal volume”.

The values are drawn from patent publication US11648295B2, “Methods of treating diseases resulting from a maladapted stress response” (Cortene Inc., priority 2016, dated 2023).
